We go through 6 compounds from patent publication US20260258032A1, “TYROSINE KINASE 2 INHIBITORS AND USES THEREOF” (BIOGEN MA INC., priority 2022, published 2026).

Chains of the proteins cited; added tags and fusions are not shown. Residues count along the entry.
UniProt P29597, 575-876 limits assumed: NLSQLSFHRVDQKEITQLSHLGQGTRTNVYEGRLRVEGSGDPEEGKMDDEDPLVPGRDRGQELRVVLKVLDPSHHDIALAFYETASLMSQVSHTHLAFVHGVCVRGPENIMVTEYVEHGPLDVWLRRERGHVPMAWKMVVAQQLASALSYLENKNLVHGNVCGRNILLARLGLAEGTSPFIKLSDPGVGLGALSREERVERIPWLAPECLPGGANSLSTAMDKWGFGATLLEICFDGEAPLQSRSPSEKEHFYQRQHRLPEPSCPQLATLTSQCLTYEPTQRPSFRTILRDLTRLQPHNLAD

One test deals with JH2 domain of human Tyk2 (Homo sapiens, UniProt P29597). In words: JH2 biochemical assay (TR-FRET probe displacement). The conditions noted are these: read-out: TYK2-JH2 IC50. The protocol: The inhibitory potency of compounds of the disclosure against the kinase activity of recombinantly generated JH2 domain of human Tyk2 was evaluated in a plate-based assay using a TR-FRET assay platform. Briefly, 2 nM of recombinant JH2 domain [10×His-tagged TYK2 JH2 domain (amino acid 575-876)] was combined with 2 nM probe ((S)-6-amino-9-(2-carboxy-4-((1-(3-(8-methyl-5-(methylamino)-8H-imidazo[4,5-d]thiazolo[5,4-b]pyridin-2-yl)phenyl)ethyl)carbamoyl)phenyl)-3-iminio-5-sulfo-3H-xanthene-4-sulfonate), 0.1 nM Tb-labeled anti-His antibody, and compounds of disclosure for 60 minutes. Compounds are tested at either […] top concentration, 10 points of 3-fold dilution. The TR-FRET signal […] by compounds and signal was calculated by taking the ratio of fluorescence at 520 nm and 495 nm. The data was normalized and the percent activity versus log concentration of compound was fitted with a 4-parameter logistic model to generate IC50 curves.

Test [1] concerns Tyk2 kinase activity on STAT4. The experiment in a line: pSTAT4 cell assay (MSD, NK92 cells). The conditions noted are these: read-out: TYK2, compounds 1 hr, stimulated 15 minutes. The protocol: The inhibitory potency of compounds of the disclosure against the Tyk2 kinase activity on STAT4 was evaluated using an MSD-platform plate-based assay format. NK92 cells natively expressing STAT4 and Tyk2 were serum-starved to reduce background phosphorylation levels, then cells were treated compounds for 1 hr with a 10-point four-fold dilution series starting at 10 μM. Cells were then stimulated with 30 ng/mL IL2 for 15 minutes. Cells were lysed and […] levels were quantitated using an MSD plate-based assay with anti-STAT4 antibodies. The data were normalized and the percent activity versus log concentration of compound were fitted with a 4-parameter logistic model to generate to generate IC50 curves.

With `CNc1cc(N2CCc3cnc(NC(C)=O)cc32)nc(C(C)(F)F)n1`, the IC50 on JH2 domain of human Tyk2 was 10 to 100 nM; in test [1] it was over 1000 nM. As to `CC(=O)Nc1cc2c(cn1)CCN2c1nccc(C(C)(F)F)n1`, the IC50 on JH2 domain of human Tyk2 fell in the range of 100 to 1000 nM. Take `CC(=O)Nc1cc2c(cn1)C1(CC1)CN2c1cc(C)nc(C2CCC2)n1`: the results for the IC50 (at JH2 domain of human Tyk2; in test [1]) were under 10 nM and 100 to 1000 nM, respectively.

Regarding `COc1nc(C)cc(N2CC3(CC3)c3cnc(NC(C)=O)cc32)n1`, the figures for the IC50 (at JH2 domain of human Tyk2; in test [1]) were 10 to 100 nM and over 1000 nM, respectively. `CC(=O)Nc1cc2c(cn1)C1(CC1)CN2c1cc(C2COC2)nc(C(C)(F)F)n1`: the IC50 was under 10 nM on JH2 domain of human Tyk2 and 100 to 1000 nM in test [1]. In the same order, the values of `CC(=O)Nc1cc2c(cn1)C1(CC1)CN2c1cc(C)nc(C2CCC(F)(F)C2)n1` (centres unmarked) are under 10 nM and 100 to 1000 nM.
